Experimental data reported in ChEMBL document CHEMBL1138773, “Design and synthesis of aryl diphenolic azoles as potent and selective estrogen receptor-beta ligands” (J Med Chem, 2004).

Chains of the proteins cited; added tags and fusions are not shown.
UniProt P19785, whole entry: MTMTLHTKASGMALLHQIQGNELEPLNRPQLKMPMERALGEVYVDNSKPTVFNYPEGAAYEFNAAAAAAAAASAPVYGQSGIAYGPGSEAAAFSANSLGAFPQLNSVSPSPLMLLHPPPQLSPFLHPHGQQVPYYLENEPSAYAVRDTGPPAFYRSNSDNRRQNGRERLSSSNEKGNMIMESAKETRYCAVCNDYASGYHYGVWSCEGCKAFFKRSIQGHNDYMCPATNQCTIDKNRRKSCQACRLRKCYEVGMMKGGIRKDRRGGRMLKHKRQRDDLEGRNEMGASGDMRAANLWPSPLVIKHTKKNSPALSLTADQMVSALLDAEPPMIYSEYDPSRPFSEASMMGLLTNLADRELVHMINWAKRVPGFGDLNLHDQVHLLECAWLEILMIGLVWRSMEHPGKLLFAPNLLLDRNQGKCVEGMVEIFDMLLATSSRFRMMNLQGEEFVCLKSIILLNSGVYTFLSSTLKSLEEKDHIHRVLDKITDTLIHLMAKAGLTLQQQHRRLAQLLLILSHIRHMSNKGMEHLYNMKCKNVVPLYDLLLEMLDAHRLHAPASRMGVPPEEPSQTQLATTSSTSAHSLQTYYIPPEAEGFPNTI

Molecular target: Estrogen receptor (Mus musculus, UniProt P19785)

`N#Cc1cc(O)cc2nc(-c3ccc(O)cc3)oc12` gave an IC50 of 0.423 µM.
